The text below walks through data of patent publication US8815891B2, “Tricyclic derivative or pharmaceutically acceptable salts thereof, preparation method thereof, and pharmaceutical composition containing the same” (Je Il Pharmaceutical Co., Ltd., priority 2008, dated 2014).

By UniProt entry, the sequences of proteins in these tests, tags left out.
UniProt P09874, whole entry: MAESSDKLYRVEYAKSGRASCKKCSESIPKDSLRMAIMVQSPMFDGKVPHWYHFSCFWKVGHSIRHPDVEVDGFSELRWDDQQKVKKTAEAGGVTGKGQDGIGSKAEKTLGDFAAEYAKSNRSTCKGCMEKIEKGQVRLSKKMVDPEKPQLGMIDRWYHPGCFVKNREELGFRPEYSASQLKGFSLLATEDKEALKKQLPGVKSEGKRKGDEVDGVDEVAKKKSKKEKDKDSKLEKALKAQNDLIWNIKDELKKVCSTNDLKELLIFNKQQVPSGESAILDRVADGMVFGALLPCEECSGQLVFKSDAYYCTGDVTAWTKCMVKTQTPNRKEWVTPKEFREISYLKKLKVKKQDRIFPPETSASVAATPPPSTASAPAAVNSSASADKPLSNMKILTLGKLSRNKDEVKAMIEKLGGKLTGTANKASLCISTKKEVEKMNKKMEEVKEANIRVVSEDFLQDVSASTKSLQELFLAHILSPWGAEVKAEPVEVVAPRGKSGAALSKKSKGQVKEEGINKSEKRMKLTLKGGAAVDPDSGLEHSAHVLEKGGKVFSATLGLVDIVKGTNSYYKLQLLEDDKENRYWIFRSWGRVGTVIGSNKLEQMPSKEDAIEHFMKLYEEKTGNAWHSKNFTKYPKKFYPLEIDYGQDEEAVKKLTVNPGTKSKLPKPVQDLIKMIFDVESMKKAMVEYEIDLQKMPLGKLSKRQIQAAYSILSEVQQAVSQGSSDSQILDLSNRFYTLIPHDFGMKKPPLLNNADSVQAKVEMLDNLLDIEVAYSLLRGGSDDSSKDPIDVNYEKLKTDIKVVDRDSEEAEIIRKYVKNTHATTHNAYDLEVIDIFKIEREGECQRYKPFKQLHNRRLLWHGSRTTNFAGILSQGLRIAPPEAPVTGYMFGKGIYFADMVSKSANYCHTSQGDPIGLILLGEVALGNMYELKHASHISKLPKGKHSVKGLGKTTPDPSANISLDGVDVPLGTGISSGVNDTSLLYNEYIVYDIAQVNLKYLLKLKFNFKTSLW

The target of the experiment is PARP-1 enzyme (Homo sapiens (Human), UniProt P09874). The experiment in a line: Poly(ADP-ribose)polymerase [PARP-1] enzyme inhibitory activity (Trevigen PARP Assay kit). In kind it is biochemical. Conditions: histone ribosylation, 450 nm.

On to DPQ [reference compound], for which the IC50 – broadly, the midpoint of a concentration-inhibition curve – amounted to 2510 nM.
